Assay results from publication PMC10386414 (Molecules, 2023).
Values joined by “and” are separate entries in the source; they are usually repeats but may differ in a detail not shown here. Equal entries are not always repeated.

By UniProt entry, the sequences of proteins in these tests, tags left out.
UniProt P35372, whole entry, looked up: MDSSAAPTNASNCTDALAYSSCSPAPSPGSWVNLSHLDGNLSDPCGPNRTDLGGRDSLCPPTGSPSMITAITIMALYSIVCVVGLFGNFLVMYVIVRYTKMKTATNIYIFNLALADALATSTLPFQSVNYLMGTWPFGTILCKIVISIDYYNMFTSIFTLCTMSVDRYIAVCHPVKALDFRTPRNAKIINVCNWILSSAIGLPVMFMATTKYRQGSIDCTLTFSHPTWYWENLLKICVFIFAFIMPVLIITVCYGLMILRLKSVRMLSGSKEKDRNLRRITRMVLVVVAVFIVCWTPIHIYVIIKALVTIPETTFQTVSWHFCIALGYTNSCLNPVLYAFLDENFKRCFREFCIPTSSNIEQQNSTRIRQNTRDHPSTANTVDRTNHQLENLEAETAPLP

Biological target: human μ-opioid receptor (OPRM1) (Homo sapiens, UniProt P35372)
Experiment: Inhibition of forskolin-induced cAMP accumulation assay, MOR antagonist mode (versus EC90 of fentanyl)
Conditions: for MOR Antagonist %Imax ± SEM: versus EC90 of fentanyl, Imax normalized to naltrexone

| Compound | IC50 | MOR Antagonist %Imax ± SEM | MOR antagonist activity compared with naltrexone (in words) (cAMP assay) |
| --- | --- | --- | --- |
| CCCC[C@@H]1[C@H]2CCC[C@]1(c1cccc(O)c1)CCN2CCc1ccccc1 [compound 40, 3-((1R,5S,9S)-9-Butyl-2-phenethyl-2-azabicyclo[3.3.1]nonan-5-yl)phenol] | 2090 nM | 101 ± 7% | – |
| CCC[C@H]1[C@@H]2CCC[C@@]1(c1cccc(O)c1)CCN2CCc1ccccc1 [compound 16] | 11 nM | 48 ± 1% | – |
| C[C@@H]1[C@H]2CCC[C@]1(c1cccc(O)c1)CCN2CCc1ccccc1 [compound 56, 3-((1R,5S,9S)-9-Methyl-2-phenethyl-2-azabicyclo[3.3.1]nonan-5-yl)phenol] | – | 93 ± 7% | – |
| CCCC[C@H]1[C@@H]2CCC[C@@]1(c1cccc(O)c1)CCN2CCc1ccccc1 [compound 17, 3-((1S,5R,9R)-9-Butyl-2-phenethyl-2-azabicyclo[3.3.1]nonan-5-yl)phenol] | 3.8 nM | 80 ± 6% | – |
| C[C@H]1[C@@H]2CCC[C@@]1(c1cccc(O)c1)CCN2CCc1ccccc1 [compound 48, 3-((1S,5R,9R)-9-Methyl-2-phenethyl-2-azabicyclo[3.3.1]nonan-5-yl)phenol] | – | 153% and 153 ± 12% | more potent, selective, and with higher antagonist efficacy than naltrexone |
| CCC[C@@H]1[C@@H]2CCC[C@@]1(c1cccc(O)c1)CCN2CCc1ccccc1 [compound 19, 3-((1S,5R,9S)-2-Phenethyl-9-propyl-2-azabicyclo[3.3.1]nonan-5-yl)phenol] | 415 nM | 101 ± 9% | – |
| CCC[C@@H]1[C@H]2CCC[C@]1(c1cccc(O)c1)CCN2CCc1ccccc1 [compound 39, 3-((1R,5S,9S)-2-Phenethyl-9-propyl-2-azabicyclo[3.3.1]nonan-5-yl)phenol] | 140 nM | 123 ± 12% | – |
| CC[C@H]1[C@@H]2CCC[C@@]1(c1cccc(O)c1)CCN2CCc1ccccc1 [compound 15, 3-((1S,5R,9R)-9-Ethyl-2-phenethyl-2-azabicyclo[3.3.1]nonan-5-yl)phenol] | 3.3 nM | 69 ± 7% | – |
| CCCC[C@@H]1[C@@H]2CCC[C@@]1(c1cccc(O)c1)CCN2CCc1ccccc1 [compound 20, 3-((1S,5R,9S)-9-Butyl-2-phenethyl-2-azabicyclo[3.3.1]nonan-5-yl)phenol] | 1370 nM | 59 ± 4% | – |
| CC[C@@H]1[C@H]2CCC[C@]1(c1cccc(O)c1)CCN2CCc1ccccc1 [compound 38, 3-((1R,5S,9S)-9-Ethyl-2-phenethyl-2-azabicyclo[3.3.1]nonan-5-yl)phenol] | 35 nM | 92 ± 7% | – |
